The record followed here is patent publication US5280548A, “Emission based fiber optic sensors for pH and carbon dioxide analysis” (BOC Health Care, Inc., priority 1993, dated 1994).

This series is described as follows: Photobleaching of dye. Type of series: physicochemical. On the procedure: 1969, 31, 1-13], as a standard.
The desired operating life of the pH and carbon dioxide sensors is 72 hours. The ratiometric measurement of the base peak and the isosbestic point eliminates drift due to fluctuations in signal intensity. As the dye degrades due to photobleaching, however, the decrease in emission reaching the photodetector will yield a decrease in the signal to noise ratio. […] The photobleaching quantum yield was calculated to be 4.5×10^-5 using an Argon ion laser emitting at 514.5 nm. The amount of dye depletion was calculated using the photobleaching quantum yield and the amount of light absorbed by the dye at the sensor tip. The intensity of light reaching the end of the optical fiber was kept between 1 and 3 μW with a duty cycle of 50%. […] Little degradation in the system performance is expected.

As for “seminaphthorhodaflor-1-carboxylate [SNARF-1C]”, the loss of dye (20 mmol sodium bicarbonate, 37° C., argon ion laser 514.5 nm, 1.7 mW, 4.25 hours) stood at 6%. The photobleaching quantum yield (Argon ion laser 514.5 nm) is 4.5×10^-5.
